We go through 2 compounds from patent US20200268852A1, “HEMATOPOIETIC RECOVERY FROM RADIATION INJURY” (priority 2013, published 2020).

The target in one assay is T1, androgen receptor (AR) (Mus musculus, UniProt P19091).
T1 construct: cTEC C9 were stimulated for 2 h with DTH, with or without pretreatment for 30 minutes with MDV3100; endogenous in cells; host or cells: cTEC cell line C9
T1 sequence (P19091 1-899): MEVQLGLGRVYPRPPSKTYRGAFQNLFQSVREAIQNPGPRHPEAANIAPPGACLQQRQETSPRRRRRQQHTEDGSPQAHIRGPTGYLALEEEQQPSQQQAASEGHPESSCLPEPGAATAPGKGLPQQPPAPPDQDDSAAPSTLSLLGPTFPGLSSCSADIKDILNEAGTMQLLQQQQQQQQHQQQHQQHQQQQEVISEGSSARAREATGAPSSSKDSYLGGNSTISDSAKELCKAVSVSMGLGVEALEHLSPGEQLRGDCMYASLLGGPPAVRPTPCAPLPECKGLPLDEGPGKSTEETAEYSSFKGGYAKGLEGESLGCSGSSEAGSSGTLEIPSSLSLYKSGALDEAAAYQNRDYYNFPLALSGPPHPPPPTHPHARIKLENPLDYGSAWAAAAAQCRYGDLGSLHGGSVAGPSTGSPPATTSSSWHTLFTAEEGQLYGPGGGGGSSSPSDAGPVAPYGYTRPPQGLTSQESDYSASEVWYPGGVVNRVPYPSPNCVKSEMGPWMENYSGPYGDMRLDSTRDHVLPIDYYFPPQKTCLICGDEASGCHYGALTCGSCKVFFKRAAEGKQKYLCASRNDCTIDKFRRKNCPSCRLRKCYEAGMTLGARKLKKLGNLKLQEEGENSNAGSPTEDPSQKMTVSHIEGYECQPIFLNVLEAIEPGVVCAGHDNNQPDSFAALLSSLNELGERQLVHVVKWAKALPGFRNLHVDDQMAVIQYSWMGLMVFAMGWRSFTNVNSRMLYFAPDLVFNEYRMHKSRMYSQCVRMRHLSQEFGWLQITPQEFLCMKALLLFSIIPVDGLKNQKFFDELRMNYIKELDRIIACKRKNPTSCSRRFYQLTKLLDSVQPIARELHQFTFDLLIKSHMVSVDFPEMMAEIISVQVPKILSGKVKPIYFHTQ
Description: ChIP of AR binding to the Dll4 promoter in C9 cells. It counts as cell-based. As to conditions: pre-treatment with MDV3100 before DTH.

Another assay has as its system mice. Description: Survival after TBI with Degarelix plus LH analogue hCG. The format is in vivo, mouse. As to conditions: Degarelix in addition to hCG, compared to Degarelix alone. An excerpt:
FIG. 12A, percent survival in mice given total body irradiated (TBI, black circle), mice given total body irradiated plus castration (TBI+castration, grey triangle) and mice given total body irradiated plus castration and treated with Degarelix (TBI+castration+LHRH-Ant, grey inverted triangle). FIG. 12B, ng/mL levels of testosterone, luteinizing hormone (LH) and follicle-stimulating hormone (FSH) at 2, 7 and/or 14 days after a lethal dose of total body irradiation among control (open bars), lethal total body irradiated (LTBI, black bars) and lethal total body irradiation treated with Degarelix (LTBI+LHRH-Ant, grey bars). FIG. 12C, percent survival in mice given total body irradiation (TBI) and treated with Degarelix plus PBS (grey squares), and in mice given total body irradiation (TBI) and treated with Degarelix and a LH analogue (human chorionic gonadotropin, hCG; black circles).
In yet another experiment, mice were irradiated and administered Degarelix and a luteinizing hormone analogue (human chorionic gonadotropin, hCG). Consistent with our hypothesis, hematopoietic stem cells express the LH receptor and LT-HSCs express the LH receptor even more highly.

Turning to `CNC(=O)c1ccc(N2C(=S)N(c3ccc(C#N)c(C(F)(F)F)c3)C(=O)C2(C)C)cc1F` [MDV3100, Enzalutamide], the “AR interaction with Dll4 promoter region C” value at androgen receptor (AR) is given as “partially impeded”. Regarding human chorionic gonadotropin [hCG], the survival result in the assay with mice was “significantly worse survival”.
